What was measured:
CCR5 [1] = target: T1, CCR5 (Homo sapiens, UniProt P51681); conditions: summary of Table 1
CCR5 [2] = target: T1, CCR5; test: cell-based

By UniProt entry, the sequences of proteins in these tests, tags left out.
UniProt P51681, whole entry, species assumed: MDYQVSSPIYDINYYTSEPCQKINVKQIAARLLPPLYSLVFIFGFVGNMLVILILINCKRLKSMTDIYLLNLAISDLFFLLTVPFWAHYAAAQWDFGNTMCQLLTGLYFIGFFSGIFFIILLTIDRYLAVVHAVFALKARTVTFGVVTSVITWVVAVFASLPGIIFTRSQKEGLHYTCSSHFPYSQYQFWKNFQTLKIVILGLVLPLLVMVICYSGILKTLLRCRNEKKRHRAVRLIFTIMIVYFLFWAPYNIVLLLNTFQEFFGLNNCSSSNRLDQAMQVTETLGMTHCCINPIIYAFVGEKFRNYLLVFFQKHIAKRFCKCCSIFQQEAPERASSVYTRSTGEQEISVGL

| IC50 (CCR5 [2]) | SMILES | CCR5 inhibition (in words) (CCR5 [1]) |
| --- | --- | --- |
| > 5 µM | Cc1cnc(C(=O)c2ccnc3[nH]ccc23)c(NS(=O)(=O)c2ccc(Cl)c(C(F)(F)F)c2)c1 [Compound 1] | do not inhibit |
|  | Cc1cnc(C(=O)c2ncnc3[nH]ccc23)c(NS(=O)(=O)c2ccc(Cl)c(C(F)(F)F)c2)c1 [Compound 2] | do not inhibit |
|  | O=C(c1ncc(Cl)cc1NS(=O)(=O)c1ccc(Cl)c(C(F)(F)F)c1)c1ccnc2[nH]ccc12 [Compound 3] | do not inhibit |

Reference: US11357760B2, “Method of treating liver fibrosis” (ChemoCentryx, Inc., priority 2016, dated 2022)
